Laboratory results published in PubChem BioAssay (Tox21).
“And” between values parts separate entries of the source, which are not always exact repeats. Equal values may be shown once. This is a selection; strong and weak results do not stand in their true shares. Results filed as inconclusive are left out. The source made the active and inactive calls. The call rests on the fitted dose curve; in most records, active means well fitted activation curve with a large enough effect in the repeat runs; inconclusive means weak or mixed curves; inactive means flat fitted curve, though single readings scatter.

Test: Caspase-3/7 induction in HepG2 cells by small molecules, qHTS assay (AID 1346978); further: nearly all actives have a fitted effect of over 15% in size
Settings: HepG2 caspase-3/7 activation, Caspase-Glo luminescence, 17 h; at 42.5 µM (top of the series)
Source text: National Center for Advancing Translational Sciences [NCATS] NIH Chemical Genomics Center [NCGC] U.S. Environmental Protection Agency [EPA] National Institutes of Environmental Health Sciences [NIEHS] National Toxicology Program [NTP] Assay overview: Apoptosis is a process of programmed cell death and plays a central role in the development of multicellular organisms. It is a highly regulated process and induces cell death by activating caspases, which are the members of cysteine aspartic acid-specific protease (caspase) family. Caspases involved in apoptosis are classified by their mechanism of action as initiator caspases (caspase-2, -8, -9 and -10) and executioner caspases (caspase-3, -6, and -7). Inhibition of apoptosis results in number of cancers, autoimmune diseases, inflammatory diseases and viral infection. To identify small molecule compounds that induce apoptosis, a homogeneous, luminescent Caspase-Glo 3/7 assay was used. Wild type HepG2 cells were used to screen Tox21 libraries for identifying caspase-3/7 activity inducers.
Assay Protocol Summary: HepG2 cells were dispensed at 2,000 per well in 5uL of culture medium into white solid bottom 1536-well plates (Corning Life Sciences, Corning, NY) using a Multidrop Combi (Thermo Scientific, Waltham, MA) dispenser. The assay plates were incubated at 37 C and 5% CO2 for 5hr, and then 23nL of compounds dissolved in DMSO and positive control were transferred using a Pintool station (Wako, San Diego, CA). The assay plates were incubated at 37C and 5% CO2 for 17hr. For caspase-3/7 activity read, 4uL of Caspase-Glo 3/7 reagent (Promega Corporation, Madison, WI) was added to each well of the assay plates using Flying Reagent Dispenser (FRD, Aurora Discovery, San Diego, CA) and incubated the assay plates at room temperature for 30min. The luminescence signal was quantified using a ViewLux plate reader (Perkin Elmer, Shelton, CT).
On the % scale 0 is the no-effect control and ±100 the full control effect.

Row | SMILES | caspase activation
1 | NC(=O)Nc1ccc([As](=O)(O)O)cc1 | inactive: 0.846%

Same assay, conditions: HepG2 caspase-3/7 activation, Caspase-Glo luminescence, 17 h; at 92.4 µM (top of the series)

Row | SMILES | caspase activation
2 | NC(=O)Nc1ccc([As](=O)(O)O)cc1 | inactive: -3.61%

Same assay, conditions: HepG2 caspase-3/7 activation, Caspase-Glo luminescence, 17 h; at 92.4 µM (top of the series) unless noted

Row | SMILES | caspase activation
3 | O=P(Cl)(Oc1ccccc1)Oc1ccccc1 | inactive: -0.102%
4 | Cc1cc([N+](=O)[O-])cc([N+](=O)[O-])c1O | inactive: -9.98% and inactive: -9.9%
5 | O=[P+](Oc1ccccc1)Oc1ccccc1 | inactive: -0.252%
6 | CCCCO[P+](=O)OCCCC | inactive: -1.3% and inactive: 0.812%
7 | CN(C(=O)Cc1ccc(Cl)c(Cl)c1)[C@H]1CC[C@@]2(CCCO2)C[C@@H]1N1CCCC1 | inactive: 0.994% [at 42.5 µM]
8 | ClP(Cl)c1ccccc1 | inactive: 2.23%
9 | Cc1cc([N+](=O)[O-])c(O)c([N+](=O)[O-])c1 | inactive: 2.11%
10 | CCC(C)(OOC(C)(C)C)OOC(C)(C)C | inactive: -0.0069% [at 19 µM]
11 | O=[N+]([O-])c1ccc([N+](=O)[O-])cc1 | inactive: -8.6%
12 | COP(=S)(Cl)OC | inactive: 0.5%
13 | COC(=O)Cl | inactive: 0.204%
14 | CN(N=O)C(=N)N[N+](=O)[O-] | inactive: 0.963%
15 | CCNC(C)Cc1ccc2c(c1)OCO2 (centres undefined) | inactive: -1.07%
16 | O=[N+]([O-])c1ccc(S(=O)(=O)O)c([N+](=O)[O-])c1 | inactive: 0.512%
17 | O=[p+]1oc2ccccc2c2ccccc21 (centres undefined) | inactive: -0.451%
18 | CCCCOP(OCCCC)OCCCC | inactive: -1.25%
19 | CCOP(=S)(CC)Sc1ccccc1 (centres undefined) | inactive: -2.15%
20 | CCOC(=O)Cl | inactive: -1.01%
21 | CN(C(=O)Cc1cccc2occc12)[C@H]1CC[C@@]2(CCCO2)C[C@@H]1N1CCCC1 | inactive: 0.0367%
22 | CC(C)OP(=S)(OC(C)C)SCCNS(=O)(=O)c1ccccc1 | inactive: -3.85%
23 | O=P(Cl)(Cl)c1ccccc1 | inactive: -0.104%
24 | O=C(Cl)Oc1ccccc1 | inactive: 2.02%
25 | CC(C)CCCCCCCOP(OCCCCCCCC(C)C)Oc1ccccc1 | inactive: -0.316%
26 | CN(C(=O)Cc1ccccc1)[C@H]1CC[C@@]2(CCCO2)C[C@@H]1N1CCCC1 | inactive: 2.7% [at 42.5 µM]
27 | CCCCC(CC)CO[P+](=O)OCC(CC)CCCC (centres undefined) | inactive: -1.15%
28 | O=[As]c1ccccc1 (centres undefined) | inactive: -18.2%
29 | O=C(Cl)OCCOC(=O)Cl | inactive: 0.24%
